Literature values as cited in patent US20160194683A1, “Gas Biosensors” (priority 2013, published 2016).

The chains behind the UniProt entries cited, without tags or fusion partners. Where a name states a change or a piece, a line headed by the entry shows the natural chain unless it says otherwise.
UniProt P0ACQ4: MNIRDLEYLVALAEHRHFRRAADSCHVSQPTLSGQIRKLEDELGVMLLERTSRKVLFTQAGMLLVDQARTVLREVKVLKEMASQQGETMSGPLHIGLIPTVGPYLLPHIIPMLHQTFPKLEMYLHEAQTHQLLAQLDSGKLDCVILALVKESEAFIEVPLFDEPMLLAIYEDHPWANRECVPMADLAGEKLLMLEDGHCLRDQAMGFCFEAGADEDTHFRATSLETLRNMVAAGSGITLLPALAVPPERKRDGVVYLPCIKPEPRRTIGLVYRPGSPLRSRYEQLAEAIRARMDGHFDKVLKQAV
UniProt P20047: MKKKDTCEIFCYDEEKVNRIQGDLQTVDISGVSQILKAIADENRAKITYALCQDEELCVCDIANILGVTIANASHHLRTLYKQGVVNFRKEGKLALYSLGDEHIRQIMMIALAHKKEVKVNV
UniProt P06134: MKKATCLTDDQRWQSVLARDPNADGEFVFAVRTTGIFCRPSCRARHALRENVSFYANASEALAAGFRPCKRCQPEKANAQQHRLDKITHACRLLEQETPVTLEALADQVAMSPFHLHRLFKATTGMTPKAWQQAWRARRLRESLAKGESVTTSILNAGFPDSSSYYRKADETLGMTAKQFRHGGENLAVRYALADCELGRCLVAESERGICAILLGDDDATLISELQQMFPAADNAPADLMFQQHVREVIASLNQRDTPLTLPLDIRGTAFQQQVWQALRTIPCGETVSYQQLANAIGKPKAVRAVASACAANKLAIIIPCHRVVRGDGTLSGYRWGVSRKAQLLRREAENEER

Experiments:
[1] = target: OxyR of E. coli (Escherichia coli, UniProt P0ACQ4); conditions: host E. coli; katGp-luxCDABE; intracellular production of oxygen radicals; cited from earlier work
[2] = tested on: Pptcal (CO2 responsive promoter of the chloroplastic carbonic anhydrase gene); conditions: P. tricornutum transformants; cited from earlier work
[3] = target: CadC of Staphylococcus aureus (Staphylococcus aureus, UniProt P20047); conditions: host Bacillus subtilis; cadCp-lucFF; cited from earlier work
[4] = target: Ada of E. coli (Escherichia coli, UniProt P06134); conditions: host E. coli; alkAp-luxCDABE; DNA-alkylating agents; cited from earlier work
[5] = tested on: RecA-LexA of E. coli; conditions: host E. coli; cdap-gfp; cited from earlier work
[6] = tested on: MerR of E. coli; conditions: host E. coli; merTp-luxCDABE; cited from earlier work

H2O2
Detection sensitivity [1]: 3 μM H2O2,

CO2
GUS expression in air (about 0.04% CO2) relative to cells grown in 5% CO2 [2]: about 10 fold

Cd^2+
Detection sensitivity [3]: 3 nM

CN(N=O)C(=N)N[N+](=O)[O-]
Detection sensitivity [4]: 70 nM N-methyl-
Detection sensitivity [5]: 5 nM N-methyl-

Hg^2+
Detection sensitivity [6]: 1 nM
